Biological target: T1, full-length B-Catenin (Uniprot ID P35222) (Homo sapiens, UniProt P35222)
T1 construct: 10 nM full-length B-Catenin (Uniprot ID P35222)
Experiment: biochemical
Format: binding
Conditions: beta-Catenin FP IC50 (nM), competition fluorescence polarization

By UniProt entry, the sequences of proteins in these tests, tags left out.
UniProt P35222, whole entry: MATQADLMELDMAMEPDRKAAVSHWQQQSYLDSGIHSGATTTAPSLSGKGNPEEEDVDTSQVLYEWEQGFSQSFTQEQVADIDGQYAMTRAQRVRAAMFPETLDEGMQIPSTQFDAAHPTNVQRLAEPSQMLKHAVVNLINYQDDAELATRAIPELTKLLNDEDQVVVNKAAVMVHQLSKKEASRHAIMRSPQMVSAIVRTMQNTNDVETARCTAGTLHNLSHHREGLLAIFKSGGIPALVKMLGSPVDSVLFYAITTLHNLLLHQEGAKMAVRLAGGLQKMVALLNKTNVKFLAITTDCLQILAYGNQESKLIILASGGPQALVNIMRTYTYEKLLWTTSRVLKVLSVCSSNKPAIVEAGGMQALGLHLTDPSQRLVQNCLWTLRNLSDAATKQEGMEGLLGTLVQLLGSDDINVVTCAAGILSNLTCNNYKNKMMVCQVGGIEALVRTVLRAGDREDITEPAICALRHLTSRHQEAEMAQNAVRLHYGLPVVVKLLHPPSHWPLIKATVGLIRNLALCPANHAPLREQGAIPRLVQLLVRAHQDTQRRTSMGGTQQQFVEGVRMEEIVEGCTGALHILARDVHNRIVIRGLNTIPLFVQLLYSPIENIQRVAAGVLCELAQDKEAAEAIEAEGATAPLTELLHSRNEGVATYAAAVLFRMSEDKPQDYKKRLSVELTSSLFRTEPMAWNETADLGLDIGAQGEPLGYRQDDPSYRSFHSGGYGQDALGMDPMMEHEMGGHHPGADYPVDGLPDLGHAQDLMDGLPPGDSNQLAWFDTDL

| IC50 | Compound |
| --- | --- |
| 50 to 200 nM | CC(=O)N1CCC[C@]12CC=CCCCC1(CCCC=CCCCOC(=O)N3CC[C@@]4(C3)NC(=O)[C@H](CCCCNC(=O)CC[C@@H](C(=O)N[C@@H](C)C(N)=O)NC(=O)[C@H](Cc3csc5ccccc35)NC(=O)[C@H](Cc3ccsc3)NC4=O)NC(=O)[C@H](Cc3ccccc3)NC(=O)[C@H](CCC(=O)O)NC(=O)C(C)(C)NC(=O)[C@H](Cc3cccc(C(=O)O)c3)NC(=O)[C@H]([C@H](C)O)NC1=O)NC(=O)[C@H](CC(C)(C)C)NC(=O)[C@H](CC(=O)O)NC2=O (relative stereo) [I-524, Ac-PL3-Asp-Npg-B5-aThr-3COOHF-Aib-Glu-Phe-Lys*3-PyrS2-3Thi-BztA-GlnR*3-Ala-NH2] |
| < 50 nM | CC(=O)N1CCC[C@]12CC=CCCCC1(CCCC=CCCCOC(=O)N3CC[C@@]4(C3)NC(=O)[C@H](CCCCNC(=O)CC[C@@H](C(=O)N[C@@H](C)C(N)=O)NC(=O)[C@H](Cc3csc5ccccc35)NC(=O)[C@H](Cc3ccsc3)NC4=O)NC(=O)[C@H](Cc3ccccc3)NC(=O)[C@H](CCCC(=O)O)NC(=O)C(C)(C)NC(=O)[C@H](Cc3cccc(C(=O)O)c3)NC(=O)[C@H](CC(=O)O)NC1=O)NC(=O)[C@H](CC(C)(C)C)NC(=O)[C@H](CC(=O)O)NC2=O (relative stereo) [I-525, Ac-PL3-Asp-Npg-B5-Asp-3COOHF-Aib-Aad-Phe-Lys*3-PyrS2-3Thi-BztA-GlnR*3-Ala-NH2] |
| 200 to 750 nM | CC(=O)N1CCC[C@]12CC=CCCCC1(CCCC=CCCCOC(=O)N3CC[C@@]4(C3)NC(=O)[C@H](CCCCNC(=O)CC[C@@H](C(=O)N[C@@H](C)C(N)=O)NC(=O)[C@H](Cc3csc5ccccc35)NC(=O)[C@H](Cc3ccsc3)NC4=O)NC(=O)[C@H](Cc3ccccc3)NC(=O)[C@H](CCCC(=O)O)NC(=O)C(C)(C)NC(=O)[C@H](Cc3cccc(C(=O)O)c3)NC(=O)[C@H]([C@H](C)O)NC1=O)NC(=O)[C@H](CC(C)(C)C)NC(=O)[C@H](CC(=O)O)NC2=O (relative stereo) [I-526, Ac-PL3-Asp-Npg-B5-aThr-3COOHF-Aib-Aad-Phe-Lys*3-PyrS2-3Thi-BztA-GlnR*3-Ala-NH2] |
| < 50 nM | CC(=O)N1CCC[C@]12CC=CCCCC1(CCCC=CCCCOC(=O)N3CC[C@@]4(C3)NC(=O)[C@H](CCCCNC(=O)CC[C@@H](C(=O)N[C@@H](C)C(N)=O)NC(=O)[C@H](Cc3csc5ccccc35)NC(=O)[C@H](Cc3ccsc3)NC4=O)NC(=O)[C@H](Cc3ccccc3)NC(=O)[C@H](Cc3ccccc3)NC(=O)C(C)(C)NC(=O)[C@H](Cc3cccc(C(=O)O)c3)NC(=O)[C@H](CC(=O)O)NC1=O)NC(=O)[C@H](CC(C)(C)C)NC(=O)[C@H](CC(=O)O)NC2=O (relative stereo) [I-529, Ac-PL3-Asp-Npg-B5-Asp-3COOHF-Aib-Phe-Phe-Lys*3-PyrS2-3Thi-BztA-GlnR*3-Ala-NH2] |
| < 50 nM | CC(=O)N1CCC[C@]12CC=CCCCC1(CCCC=CCCCOC(=O)N3CC[C@@]4(C3)NC(=O)[C@H](CCCCNC(=O)CC[C@@H](C(=O)N[C@@H](C)C(N)=O)NC(=O)[C@H](Cc3csc5ccccc35)NC(=O)[C@H](Cc3ccsc3)NC4=O)NC(=O)[C@H](Cc3ccccc3)NC(=O)[C@H](CCc3ccccc3)NC(=O)C(C)(C)NC(=O)[C@H](Cc3cccc(C(=O)O)c3)NC(=O)[C@H](CC(=O)O)NC1=O)NC(=O)[C@H](CC(C)(C)C)NC(=O)[C@H](CC(=O)O)NC2=O (relative stereo) [I-530, Ac-PL3-Asp-Npg-B5-Asp-3COOHF-Aib-hPhe-Phe-Lys*3-PyrS2-3Thi-BztA-GlnR*3-Ala-NH2] |
| < 50 nM | CC(=O)N1CCC[C@]12CC=CCCCC1(CCCC=CCCCOC(=O)N3CC[C@@]4(C3)NC(=O)[C@H](CCCCNC(=O)CC[C@@H](C(=O)N[C@@H](C)C(N)=O)NC(=O)[C@H](Cc3csc5ccccc35)NC(=O)[C@H](Cc3ccsc3)NC4=O)NC(=O)[C@H](Cc3ccccc3)NC(=O)[C@H](CCc3ccc(O)cc3)NC(=O)C(C)(C)NC(=O)[C@H](Cc3cccc(C(=O)O)c3)NC(=O)[C@H](CC(=O)O)NC1=O)NC(=O)[C@H](CC(C)(C)C)NC(=O)[C@H](CC(=O)O)NC2=O (relative stereo) [I-533, Ac-PL3-Asp-Npg-B5-Asp-3COOHF-Aib-hTyr-Phe-Lys*3-PyrS2-3Thi-BztA-GlnR*3-Ala-NH2] |
| < 50 nM | CC(=O)NCCCC[C@@H]1NC(=O)C(C)(C)NC(=O)[C@H](Cc2cccc(C(=O)O)c2)NC(=O)[C@H](CC(=O)O)NC(=O)C2(CCCC=CCCCOC(=O)N3CC[C@@]4(C3)NC(=O)[C@H](CCCCNC(=O)CC[C@@H](C(=O)N[C@@H](C)C(N)=O)NC(=O)[C@H](Cc3csc5ccccc35)NC(=O)[C@H](Cc3ccsc3)NC4=O)NC(=O)[C@H](Cc3ccccc3)NC1=O)CCCC=CC[C@]1(CCCN1C(C)=O)C(=O)N[C@@H](CC(=O)O)C(=O)N[C@@H](CC(C)(C)C)C(=O)N2 (relative stereo) [I-534, Ac-PL3-Asp-Npg-B5-Asp-3COOHF-Aib-AcLys-Phe-Lys*3-PyrS2-3Thi-BztA-GlnR*3-Ala-NH2] |
| 50 to 200 nM | CC(=O)N1CCC[C@]12CC=CCCCC1(CCCC=CCCCOC(=O)N3CC[C@@]4(C3)NC(=O)[C@H](CCCCNC(=O)CC[C@@H](C(=O)N[C@@H](C)C(N)=O)NC(=O)[C@H](Cc3csc5ccccc35)NC(=O)[C@H](C(C)C)NC4=O)NC(=O)[C@H](Cc3ccccc3)NC(=O)[C@H](C)NC(=O)C(C)(C)NC(=O)[C@H](Cc3cccc(C(=O)O)c3)NC(=O)[C@H](CC(=O)O)NC1=O)NC(=O)[C@H](CC(C)(C)C)NC(=O)[C@H](CC(=O)O)NC2=O (relative stereo) [I-535, Ac-PL3-Asp-Npg-B5-Asp-3COOHF-Aib-Ala-Phe-Lys*3-PyrS2-Val-BztA-GlnR*3-Ala-NH2] |
| 50 to 200 nM | CC[C@H](C)[C@@H]1NC(=O)[C@]23CCN(C2)C(=O)OCCCC=CCCCC2(CCCC=CC[C@]4(CCCN4C(C)=O)C(=O)N[C@@H](CC(=O)O)C(=O)N[C@@H](CC(C)(C)C)C(=O)N2)C(=O)N[C@@H](CC(=O)O)C(=O)N[C@@H](Cc2cccc(C(=O)O)c2)C(=O)NC(C)(C)C(=O)N[C@@H](C)C(=O)N[C@@H](Cc2ccccc2)C(=O)N[C@@H](CCCCNC(=O)CC[C@@H](C(=O)N[C@@H](C)C(N)=O)NC(=O)[C@H](Cc2csc4ccccc24)NC1=O)C(=O)N3 (relative stereo) [I-536, Ac-PL3-Asp-Npg-B5-Asp-3COOHF-Aib-Ala-Phe-Lys*3-PyrS2-Ile-BztA-GlnR*3-Ala-NH2] |
| < 50 nM | CC(=O)N1CCC[C@]12CC=CCCCC1(CCCC=CCCCOC(=O)N3CC[C@@]4(C3)NC(=O)[C@H](CCCCNC(=O)CC[C@@H](C(=O)N[C@@H](C)C(N)=O)NC(=O)[C@H](Cc3csc5ccccc35)NC(=O)[C@H](C3CCCCC3)NC4=O)NC(=O)[C@H](Cc3ccccc3)NC(=O)[C@H](C)NC(=O)C(C)(C)NC(=O)[C@H](Cc3cccc(C(=O)O)c3)NC(=O)[C@H](CC(=O)O)NC1=O)NC(=O)[C@H](CC(C)(C)C)NC(=O)[C@H](CC(=O)O)NC2=O (relative stereo) [I-537, Ac-PL3-Asp-Npg-B5-Asp-3COOHF-Aib-Ala-Phe-Lys*3-PyrS2-Chg-BztA-GlnR*3-Ala-NH2] |
| < 50 nM | CCC(CC)[C@@H]1NC(=O)[C@]23CCN(C2)C(=O)OCCCC=CCCCC2(CCCC=CC[C@]4(CCCN4C(C)=O)C(=O)N[C@@H](CC(=O)O)C(=O)N[C@@H](CC(C)(C)C)C(=O)N2)C(=O)N[C@@H](CC(=O)O)C(=O)N[C@@H](Cc2cccc(C(=O)O)c2)C(=O)NC(C)(C)C(=O)N[C@@H](C)C(=O)N[C@@H](Cc2ccccc2)C(=O)N[C@@H](CCCCNC(=O)CC[C@@H](C(=O)N[C@@H](C)C(N)=O)NC(=O)[C@H](Cc2csc4ccccc24)NC1=O)C(=O)N3 (relative stereo) [I-538, Ac-PL3-Asp-Npg-B5-Asp-3COOHF-Aib-Ala-Phe-Lys*3-PyrS2-DiethA-BztA-GlnR*3-Ala-NH2] |

Reference: patent US20240360179A1, “STAPLED PEPTIDES AND METHODS THEREOF” (FOG PHARMACEUTICALS, INC., priority 2021, published 2024)
